# Ab-14 heavy chain CDR variants: yeast mating affinities

Values reported by Li et al. 2023, doi:10.1038/s41467-023-39022-2 (FLAb copy).

The target is the same throughout: PDVDLGDISGINAS, from the HR2 region of SARS-CoV-2 spike.

Parent scFv Ab-14: VH joined to VL by three GGGGS repeats. Changes lie in the heavy chain CDRs alone.
VH: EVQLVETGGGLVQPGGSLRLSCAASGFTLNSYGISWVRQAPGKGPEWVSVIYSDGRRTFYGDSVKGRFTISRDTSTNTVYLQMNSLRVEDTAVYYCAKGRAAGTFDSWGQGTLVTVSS
VL: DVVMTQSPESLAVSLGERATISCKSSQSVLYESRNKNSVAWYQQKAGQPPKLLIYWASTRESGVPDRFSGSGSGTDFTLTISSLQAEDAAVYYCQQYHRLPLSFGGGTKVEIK

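The parent was found by panning a naive human phage display library on the peptide. The variants were designed computationally from a first round of random CDR variants and then made and measured. Their group label is 14H_En_HC (En: ensemble of fine-tuned language models; HC: hill climbing; a sequence that several methods proposed may carry one label only). Affinity was read by AlphaSeq, a pooled yeast mating assay with surface-displayed partners. Pairs that bind mate more often; barcode pairs of the diploids are counted by sequencing. Scores were corrected for input abundance and mapped to Kd with protein pairs of known affinity run in the same pool. There are six technical replicates.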

The parent's heavy chain CDRs are GFTLNSYGIS, VIYSDGRRTFYGDSVK, GRAAGTFDS; each variant's own CDRs replace them letter for letter.
Numbers give log10(Kd / nM), so 0 is 1 nM and 3 is 1 µM. Smaller is tighter.
A mean of the replicates is given; it leaves out those without a signal.
An entry "ND" has no value in the source: the pair was not observed among the diploids in that replicate. This suggests poor binding but is not conclusive.
The authors averaged sequences with at least three values out of six and counted those with two or fewer as poor binders.
As a blank, each scFv also met three strains without target: over all heavy chain designs, 1% of these pairings were detected, typically at 2.08 and seldom below 0.84. For each scFv, signals with the empty controls are counted beside the result.
A sequence measured in both rounds can read differently, since the two assays cover different ranges.

Variant GFDLNEYGIS | VIYADGRRTAYSDSVK | GEVAGTFVD gave -0.34, -0.18, 0.06, -0.02, -0.32, 0.10 (mean -0.11; controls 0 of 18).
Variant GFNLNEYGIS | VIYADGRRTFYADSVK | GGIAGTFDV gave -0.16, -0.39, -0.55, -0.71, -0.95, -0.27 (mean -0.50; controls 0 of 18).
Variant GFDLNEYGIS | VIYADGRRTAYADSVK | GQNAGTFTL gave -0.29, -0.62, -0.55, -0.53, -0.64, -0.56 (mean -0.53; controls 0 of 18).
Variant GFNLNEYGIS | VIYADGVRTFYADSVK | GEVAGTFDV gave -0.48, -0.28, -0.29, -0.82, -0.60, -0.46 (mean -0.49; controls 0 of 18).
Variant GFDLDEYGIS | VIYADGRRTFYIDSVK | GETAGTFDN gave -0.42, -0.28, -0.32, -0.59, -0.44, -0.42 (mean -0.41; controls 0 of 18).
Variant GFDLNEYGIS | VIYADGLRTFYTDSVK | GENAGTFDV gave -0.46, 0.00, -0.54, -0.42, -0.31, -0.52 (mean -0.38; controls 0 of 18).
Variant GFDLNEYGIS | VIYADGRRTQYIDSVK | GETAGTFDL gave -0.25, -0.34, -0.37, -0.45, -0.68, -0.28 (mean -0.40; controls 0 of 18).
Variant GFNLDEYGIS | VIYADGRRTFYADSVK | GSTAGTFDT gave -0.64, -0.96, -1.09, -1.77, -1.65, -1.14 (mean -1.21; controls 0 of 18).
Variant GFDLNEYGIS | VIYADGRRTFYVDSVK | GVNAGTFDE gave ND, ND, ND, -1.00, ND, 0.84 (mean -0.08; controls 0 of 18).
Variant GFDLNEYGIS | VIYADGKRTFYTDSVK | GTNAGTFDV gave 0.01, -0.06, -0.01, -0.43, 0.18, 0.54 (mean 0.04; controls 0 of 18).
Variant GFDLNEYGIS | VIYADGKRTFYADSVK | GQLAGTFDV gave -0.70, -0.49, -0.50, -0.99, -0.53, -0.49 (mean -0.62; controls 1 of 18).
Variant GFDLNEYGIS | VIYADGVRTFYADSVK | GKNAGTFDQ gave -0.79, -0.05, -0.61, -1.06, -0.90, -0.32 (mean -0.62; controls 1 of 18).
Variant GFNLDEYGIS | VIYADGRRTFYTDSVK | GEGAGTFDF gave 1.52, 0.96, 1.25, 1.42, 0.48, 1.67 (mean 1.22; controls 0 of 18).
Variant GFDLNEYGIS | VIYADGRRTFYADSVK | GELAGTFDL gave 0.76, 0.13, 0.18, -0.11, 0.13, -0.11 (mean 0.16; controls 1 of 18).
Variant GFDLNEYGIS | VIYADGRRTFYADNVK | GEVAGTFVV gave 0.24, 0.10, -0.11, 0.00, -0.01, 0.08 (mean 0.05; controls 0 of 18).
Variant GFGLDEYGIS | VIYADGQRTFYADSVK | GENAGTFLM gave ND, 1.45, ND, 2.04, 1.81, ND (mean 1.77; controls 0 of 18).
Variant GFDLNEYGIS | VIYADGRRTFYSDSVK | GQTAGTFDI gave -0.08, -0.04, -0.53, -0.50, -0.33, -0.12 (mean -0.27; controls 1 of 18).
Variant GFNLNEYGIS | VIYADGMRTFYTDSVK | GETAGTFDV gave -0.12, -0.17, -0.31, -0.50, -0.17, -0.18 (mean -0.24; controls 0 of 18).
Variant GFNLNEYGIS | VIYADGRRKFYADSVK | GNQAGTFDV gave -0.27, -0.23, -0.52, -0.60, -0.57, -0.40 (mean -0.43; controls 1 of 18).
Variant GFDLNEYGIS | VIYADGRRTFYADSVK | GANAGTFDV gave -0.40, -0.53, -0.55, -0.62, -0.33, -0.15 (mean -0.43; controls 0 of 18).
Variant GFDLNEYGIS | VIYADGRRTFYSDSVK | GEIAGFFDI gave ND, ND, 1.92, 3.10, 2.04, ND (mean 2.35; controls 1 of 18).
Variant GFDLNEYGIS | VIYADGRRTFYADSVK | GNNAGTFIL gave ND, 1.61, 0.45, 1.36, 0.17, 0.97 (mean 0.91; controls 0 of 18).
Variant GFNLNEYGIS | VIYADGMRTAYTDSVK | GETAGTFDN gave -0.75, -0.83, -1.21, -0.62, -0.88, -1.22 (mean -0.92; controls 0 of 18).
Variant GFDLNEYGIS | VIYADGRRTFYSDSVK | GKIAGTFDQ gave -0.63, -0.80, -0.97, -0.67, -1.09, -0.68 (mean -0.81; controls 0 of 18).
Variant GFNLDEYGIS | VIYADGRRTAYQDSVK | GEVAGTFDS gave -0.54, -0.44, -0.57, -0.73, -0.58, -0.43 (mean -0.55; controls 0 of 18).
Variant GFDLNEYGIS | VIYADGKRTAYADSVK | GQAAGTFDS gave 0.13, -0.22, -0.63, -0.82, -0.58, 0.18 (mean -0.32; controls 0 of 18).
Variant GFDLNEYGIS | VIYADGRRTFYSDSVK | GEAAGTFDD gave -0.27, -0.01, -0.44, -0.52, -0.38, -0.73 (mean -0.39; controls 0 of 18).
Variant GFDLNEYGIS | VIYADGQRTAYADSVK | GKHAGTFDS gave -0.29, -0.17, -0.15, -0.28, -0.19, -0.14 (mean -0.21; controls 0 of 18).
Variant GFDLNEYGIS | VIYADGRRTFYLDSVK | GQLAGTFDQ gave -0.30, -0.57, -0.59, -0.70, -0.93, -0.74 (mean -0.64; controls 0 of 18).
Variant GFDLNEYGIS | VIYADGRRTFYSDKVK | GNFAGTFDI gave -0.04, -0.15, -0.31, -0.20, -0.29, 0.19 (mean -0.13; controls 0 of 18).
Variant GFDLNEYGIS | VIYADGRRTFYADSVK | GEVAGTFVT gave -0.01, 0.41, ND, -0.63, -0.02, -0.78 (mean -0.21; controls 0 of 18).

The first 2 entries again:

{"CDR-H1": "GFDLNEYGIS", "CDR-H2": "VIYADGRRTAYSDSVK", "CDR-H3": "GEVAGTFVD", "replicates, log10 nM": "-0.34, -0.18, 0.06, -0.02, -0.32, 0.10", "mean log10 Kd (nM)": "-0.11", "empty controls": "0 of 18"}
{"CDR-H1": "GFNLNEYGIS", "CDR-H2": "VIYADGRRTFYADSVK", "CDR-H3": "GGIAGTFDV", "replicates, log10 nM": "-0.16, -0.39, -0.55, -0.71, -0.95, -0.27", "mean log10 Kd (nM)": "-0.50", "empty controls": "0 of 18"}